# Source: PMC8506265 (Bioorganic & medicinal chemistry, 2021)
# Chains of the proteins cited; added tags and fusions are not shown.
# UniProt P21554, whole entry: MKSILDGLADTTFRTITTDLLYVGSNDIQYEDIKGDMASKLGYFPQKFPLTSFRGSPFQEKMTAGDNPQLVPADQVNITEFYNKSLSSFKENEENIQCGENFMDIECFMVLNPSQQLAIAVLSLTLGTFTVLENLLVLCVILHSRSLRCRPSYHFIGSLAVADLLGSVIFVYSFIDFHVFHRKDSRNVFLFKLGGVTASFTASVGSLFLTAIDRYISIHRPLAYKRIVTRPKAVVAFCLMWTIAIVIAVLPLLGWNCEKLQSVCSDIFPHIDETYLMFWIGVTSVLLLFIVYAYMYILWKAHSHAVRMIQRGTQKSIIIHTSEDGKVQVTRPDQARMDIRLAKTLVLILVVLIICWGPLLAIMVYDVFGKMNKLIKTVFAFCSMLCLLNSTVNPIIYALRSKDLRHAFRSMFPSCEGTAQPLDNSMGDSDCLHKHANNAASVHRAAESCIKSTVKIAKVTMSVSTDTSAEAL
# Target: human CB1 (Homo sapiens, UniProt P21554)
# Format: biochemical
# Details: operational model of allosterism; probe CP55,940; no saturation at 100 µM
structure (smiles),measurement,value
"O=C(NCCc1ccc(N2CCCCC2)cc1)Nc1ccc(Cl)cc1 [Compound 9, 1-(4-Chlorophenyl)-3-{2-[4-(piperidin-1-yl)phenyl]ethyl}-urea]",logKb,−4.4 ± 0.5
